From PubChem BioAssay
Compounds with a hit are over-represented: about 16% of the library has one in this group of screens.
DT40 TDP1 CPT: growth inhibition of DT40 Tdp1-/-;hTDP1 cells with camptothecin (screen for TDP1 inhibitors); chicken DT40 Tdp1-/-;hTDP1 cells + 20 nM CPT, ATP luminescence, 48 h; Potency, µM (doses to about 46.2 µM), inactives show top-dose activity change, negative = growth inhibition, actives largely listed as inhibitors; hit rate 12% among 420,000; AID 686979; note: potency is the fitted concentration of half-maximal effect; % is set by controls: 0 for no effect and ±100 for the full control effect; nearly all actives have a fitted effect of over 55% in size
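Chicken DT40 Tdp1-/- cells complemented with human TDP1, 400 cells/well, exposed to compounds plus 20 nM camptothecin for at least 48 h at 37 C; viability read as ATP content by CellTiter-Glo luminescence.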
TDP1 block: inhibitors of human tyrosyl-DNA phosphodiesterase TDP1 | hit rate 0.28% among 350,000 | Q9NUW8 | Potency, µM (titrated, usually from 130 µM), inactives show top-dose activity change, negative = inhibition, hits mostly inhibitors | recombinant TDP1, AlphaScreen DNA substrate cleavage | AID 485290; note: potency is the fitted concentration of half-maximal effect; % is set by controls: 0 for no effect and ±100 for the full control effect; nearly all actives have a fitted effect of over 40% in size
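Signal: AlphaScreen proximity between streptavidin donor and anti-FITC acceptor beads on intact substrate. Reaction: Tdp1 1 nM, substrate 15 nM final, 5 min RT after 15 min compound preincubation.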
DT40 TDP1 no CPT: qHTS for Inhibitors of human tyrosyl-DNA phosphodiesterase 1 (TDP1): qHTS in cells in absence of CPT. DT40 Tdp1-/- hTDP1 cells, no CPT, ATP luminescence, 48 h. Potency, µM (top dose mostly 46.2 µM), inactives show top-dose activity change, negative = growth inhibition, usual class: inhibitors. hit rate 15% among 420,000. AID 686978, 2013; note: potency is the fitted concentration of half-maximal effect; % is set by controls: 0 for no effect and ±100 for the full control effect; nearly all actives have a fitted effect of over 55% in size
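DT40 Tdp1-/-;hTDP1 cells, no CPT (DMSO vehicle only), 400 cells/well; compounds pin-transferred; ≥48 hr, 37 °C; CellTiter-Glo 30 min RT dark, luminescence read.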
uPA generation: cell surface uPA generation inhibition; cell surface uPA generation assay, qHTS; Potency, µM (titrated, usually from 38.3 µM), inactives show at the top dose activity change, negative = inhibition, hits mostly inhibitors; hit rate 0.31% among 330,000; AID 540303; active = well fitted inhibition curve with a large enough effect; inconclusive = small, poorly fitted or top-dose-only effect; inactive = no such curve, though single readings can be large or run the other way; tested in mouse RAW 264.7 cells; note: potency is the fitted concentration of half-maximal effect; % is set by controls: 0 for no effect and ±100 for the full control effect; nearly all actives have a fitted effect of over 55% in size
miR-21 reporter: miR-21 reporter, rising signal. HeLa miR-21 FLuc reporter, luciferase, 48 h. Potency, µM (highest dose often 38.3 µM), for the others: at the highest dose reporter change, positive = more light. 340,000 tested, under 10 active. AID 2288; active = well fitted rising curve with a large enough effect; inconclusive = small, poorly fitted or top-dose-only effect; inactive = no such curve, though single readings can be large or run the other way;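 further: % of control where 0% means no effect; miR-21 action dims this reporter so a rising signal means less miR-21 action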
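Using DMEM plus 10% FBS, HeLa miR-21-FLuc cells are incubated with test compounds (final up to about 40uM) for 48 hours; firefly luciferase signal is then imaged following reagent-mediated lysis.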
* hit, by the source's call; [ ] = dose if it differs, or a comment. Unless noted, calls come from the whole dose curve; as a rule, active = well fitted curve in the direction sought with a large enough effect; inconclusive = small, poorly fitted or top-dose-only effect, or another doubt; inactive = no such curve, though single readings can be large; an effect the other way counts as inactive or inconclusive.

`CC1CN(C(=O)N2CCC(C(=O)NCCCc3ccccc3)CC2)c2cc(Cl)ccc2O1` (configuration not stated) gave DT40 TDP1 CPT 18.4µM*, TDP1 block 1.3%, DT40 TDP1 no CPT 13µM* and miR-21 reporter -0.2%.
`CCCCNC(=O)C1CCN(C(=O)N2CC(C)Oc3ccc(Cl)cc32)CC1` (configuration not stated) gave DT40 TDP1 CPT inconclusive, TDP1 block 6.5%, DT40 TDP1 no CPT 20.6µM* and miR-21 reporter 7.1%.
Screening CC(CNC(=O)C1CCN(C(=O)N2CCOc3ccc(Cl)cc32)CC1)c1ccccc1 (configuration not stated) returned DT40 TDP1 CPT inconclusive, TDP1 block 9.1%, DT40 TDP1 no CPT 16.4µM* and miR-21 reporter 21.7%.
For O=C(NCCCc1ccccc1)C1CCN(C(=O)N2CCOc3ccc(Cl)cc32)CC1 the results were DT40 TDP1 CPT 16.4µM*, TDP1 block -1.3%, DT40 TDP1 no CPT 14.6µM* and miR-21 reporter 1.1%.
CC(C)NC(=O)C1CCN(C(=O)N2CCOc3ccc(Cl)cc32)CC1 was read as DT40 TDP1 CPT -27.8%, TDP1 block 3.9%, DT40 TDP1 no CPT inconclusive and miR-21 reporter -8.4%.
`CC1CN(C(=O)N2CCC(C(=O)NCc3ccco3)CC2)c2ccccc2O1` (configuration not stated) gave DT40 TDP1 CPT 4.8%, TDP1 block 10.4%, DT40 TDP1 no CPT -19.0% and miR-21 reporter 22.4%.
Screening CC1CN(C(=O)N2CCC(C(=O)NCCCc3ccccc3)CC2)c2ccccc2O1 (configuration not stated) returned DT40 TDP1 CPT 20.6µM*, TDP1 block -2.6%, DT40 TDP1 no CPT inconclusive and miR-21 reporter -1.8%.
`CC1CN(C(=O)N2CCC(C(=O)N3CCN(c4ccccc4)CC3)CC2)c2cc(Cl)ccc2O1` (configuration not stated) gave DT40 TDP1 CPT 13µM*, TDP1 block 6.5%, DT40 TDP1 no CPT 13µM* and miR-21 reporter -4.6%.
`O=C(NCCCN1CCN(CCCNC(=O)c2ccc3c(c2)OCO3)CC1)c1ccc2c(c1)OCO2` gave DT40 TDP1 CPT 3.9%, TDP1 block -6.6%, DT40 TDP1 no CPT -15.8%, uPA generation 6.1% and miR-21 reporter -11.4%.
For O=C1Nc2ccccc2C1(O)Cc1ccccn1 (configuration not stated) the results were DT40 TDP1 CPT 15.5%, TDP1 block 4.1%, DT40 TDP1 no CPT 1.9%, uPA generation -1.5% and miR-21 reporter 0.5%.
`Cc1ccc(C)c(S(=O)(=O)N2CCCOC2CNC(=O)C(=O)NCCC2=CCCCC2)c1` (configuration not stated) gave DT40 TDP1 CPT inconclusive, TDP1 block 2.6%, DT40 TDP1 no CPT 23.1µM*, uPA generation -4.7% and miR-21 reporter 0.7%.
`Cc1ccc(S(=O)(=O)N2CCOC2CNC(=O)C(=O)NCCCc2ccccc2)cc1` (configuration not stated) gave DT40 TDP1 CPT inconclusive, TDP1 block 1.0%, DT40 TDP1 no CPT 18.4µM*, uPA generation inconclusive and miR-21 reporter inconclusive.

The final 3 compounds of the part above open the next one.
For O=C1Nc2ccccc2C1(O)Cc1ccccn1 (configuration not stated) the results were DT40 TDP1 CPT 15.5%, TDP1 block 4.1%, DT40 TDP1 no CPT 1.9%, uPA generation -1.5% and miR-21 reporter 0.5%.
`Cc1ccc(C)c(S(=O)(=O)N2CCCOC2CNC(=O)C(=O)NCCC2=CCCCC2)c1` (configuration not stated) gave DT40 TDP1 CPT inconclusive, TDP1 block 2.6%, DT40 TDP1 no CPT 23.1µM*, uPA generation -4.7% and miR-21 reporter 0.7%.
`Cc1ccc(S(=O)(=O)N2CCOC2CNC(=O)C(=O)NCCCc2ccccc2)cc1` (configuration not stated) gave DT40 TDP1 CPT inconclusive, TDP1 block 1.0%, DT40 TDP1 no CPT 18.4µM*, uPA generation inconclusive and miR-21 reporter inconclusive.
Cc1ccc(C)c(S(=O)(=O)N2CCCOC2CNC(=O)C(=O)NCCc2ccccc2)c1 (configuration not stated) was read as DT40 TDP1 CPT inconclusive, TDP1 block 4.5%, DT40 TDP1 no CPT 16.4µM*, uPA generation -8.4% and miR-21 reporter 4.5%.
Screening O=C(NCCC1=CCCCC1)C(=O)NCC1OCCCN1S(=O)(=O)c1ccccc1 (configuration not stated) returned DT40 TDP1 CPT -25.3%, TDP1 block 0.0%, DT40 TDP1 no CPT inconclusive, uPA generation 1.4% and miR-21 reporter -7.0%.
For COc1ccc(OC)c2c1C(=O)CC2C (configuration not stated) the results were DT40 TDP1 CPT 4.6% and DT40 TDP1 no CPT -11.4%.
Screening O=c1c(O)cccc2cc(O)c(O)c(O)c12 returned DT40 TDP1 CPT inconclusive, DT40 TDP1 no CPT 20.6µM*, uPA generation inconclusive and miR-21 reporter 5.7%.
`NS(=O)(=O)c1ccc(NC(=O)CSc2n[nH]c(=O)n2Cc2ccccc2)cc1` gave DT40 TDP1 CPT -11.7%, TDP1 block 9.8%, DT40 TDP1 no CPT -8.9%, uPA generation 1.3% and miR-21 reporter 2.7%.
CCOC(=O)C1CCN(c2nc3c(S(=O)(=O)c4ccccc4)nnn3c3ccc(Cl)cc23)CC1 was read as DT40 TDP1 CPT 23.1µM*, TDP1 block 1.0%, DT40 TDP1 no CPT 14.6µM* and miR-21 reporter -1.2%.
For CCOC(=O)C1CCN(c2nc3c(S(=O)(=O)c4ccccc4)nnn3c3ccsc23)CC1 the results were DT40 TDP1 CPT 14.6µM*, TDP1 block 2.6%, DT40 TDP1 no CPT 20.6µM* and miR-21 reporter -15.0%.
`NC(=O)[C@@H]1CCCN1Cc1nc(-c2ccccc2)no1` gave DT40 TDP1 CPT 1.4%, TDP1 block -5.1%, DT40 TDP1 no CPT -1.1%, uPA generation 1.3% and miR-21 reporter 1.3%.
For COC(=O)c1ccc(C(=O)OCc2nc3cc4ccccc4cc3[nH]2)cc1 the results were DT40 TDP1 CPT -4.0%, TDP1 block 1.2%, DT40 TDP1 no CPT 4.2%, uPA generation 0.8% and miR-21 reporter -34.0%.
For Cc1cc(=O)cc(C)n1-c1ccccc1N the results were DT40 TDP1 CPT 10.4%, DT40 TDP1 no CPT 24.5%, uPA generation 4.4% and miR-21 reporter -1.7%.
For COc1ccc(C2=NN(CN3C(=O)C(=O)c4ccccc43)C(c3ccc(C)cc3)C2)cc1 (configuration not stated) the results were DT40 TDP1 CPT 18.4µM*, TDP1 block 10.1%, DT40 TDP1 no CPT inconclusive, uPA generation -2.5% and miR-21 reporter -47.7%.
Screening COc1ccc(C2=NN(CN3C(=O)C(=O)c4ccccc43)C(c3ccc(Br)cc3)C2)cc1 (configuration not stated) returned DT40 TDP1 CPT 16.4µM*, TDP1 block 5.7%, DT40 TDP1 no CPT 6.51µM*, uPA generation -3.3% and miR-21 reporter -34.7%.
`COc1ccc(C2CC(c3ccccc3Br)=NN2c2ccc(S(N)(=O)=O)cc2)cc1` (configuration not stated) gave DT40 TDP1 CPT -15.9%, TDP1 block -6.2%[56.1 µM], DT40 TDP1 no CPT -15.6% and uPA generation -26.9%.
Screening Cc1[nH]nc2c1C(=O)CCC2 returned DT40 TDP1 CPT 23.1µM*, TDP1 block 1.0%, DT40 TDP1 no CPT 18.4µM*, uPA generation 0.0% and miR-21 reporter -8.4%.
Cc1cc(C)nc(Nc2ccc(C(=O)O)cc2)n1 was read as DT40 TDP1 CPT -9.5%, TDP1 block -2.2%, DT40 TDP1 no CPT -10.4%, uPA generation -1.9% and miR-21 reporter -27.6%.
